Results published in patent US20260364028A1, “COMBINATION TREATMENTS FOR DEPRESSION AND OTHER DISORDERS” (NEURAWELL THERAPEUTICS, priority 2023, published 2026).

Amino acid sequences for entries named in this document (tags omitted).
UniProt P21397, whole entry: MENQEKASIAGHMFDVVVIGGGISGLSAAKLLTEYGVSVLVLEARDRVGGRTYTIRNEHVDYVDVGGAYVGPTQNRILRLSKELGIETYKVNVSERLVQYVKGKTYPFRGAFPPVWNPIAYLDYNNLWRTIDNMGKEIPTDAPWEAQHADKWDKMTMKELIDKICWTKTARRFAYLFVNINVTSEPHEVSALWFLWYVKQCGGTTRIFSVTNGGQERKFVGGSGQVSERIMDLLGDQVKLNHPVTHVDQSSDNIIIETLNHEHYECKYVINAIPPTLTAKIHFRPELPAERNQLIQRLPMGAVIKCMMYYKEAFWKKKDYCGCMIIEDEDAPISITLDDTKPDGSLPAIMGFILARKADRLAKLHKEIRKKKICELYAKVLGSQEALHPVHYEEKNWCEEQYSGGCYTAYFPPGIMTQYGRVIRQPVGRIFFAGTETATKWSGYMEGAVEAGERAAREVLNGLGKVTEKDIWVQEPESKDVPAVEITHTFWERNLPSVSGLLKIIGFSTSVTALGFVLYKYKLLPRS
UniProt P27338, whole entry: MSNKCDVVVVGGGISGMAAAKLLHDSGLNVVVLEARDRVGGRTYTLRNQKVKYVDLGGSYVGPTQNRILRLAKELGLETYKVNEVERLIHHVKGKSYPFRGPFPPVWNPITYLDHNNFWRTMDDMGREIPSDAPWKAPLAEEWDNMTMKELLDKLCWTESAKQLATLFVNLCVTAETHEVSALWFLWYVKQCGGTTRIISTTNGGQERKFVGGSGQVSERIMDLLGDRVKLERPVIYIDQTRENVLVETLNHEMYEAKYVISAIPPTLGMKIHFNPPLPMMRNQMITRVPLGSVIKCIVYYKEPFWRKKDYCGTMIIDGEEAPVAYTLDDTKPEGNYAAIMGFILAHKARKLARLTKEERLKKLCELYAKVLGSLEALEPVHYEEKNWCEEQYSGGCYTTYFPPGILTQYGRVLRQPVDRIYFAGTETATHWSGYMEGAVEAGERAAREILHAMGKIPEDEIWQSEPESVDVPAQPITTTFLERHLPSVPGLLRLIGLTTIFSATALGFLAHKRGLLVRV

How the values were obtained:
[1] = biological target: T1, Monoamine Oxidase MAO-A (Homo sapiens, UniProt P21397); assay: Monoamine oxidase MAO-A inhibition enzyme assay (kynuramine, spectrofluorimetric); assay type: biochemical
T1 construct: host or cells: insect cells (recombinant)

[2] = biological target: T2, Monoamine Oxidase MAO-B (Homo sapiens, UniProt P27338); assay: Monoamine oxidase MAO-B inhibition enzyme assay (kynuramine, spectrofluorimetric); assay type: biochemical
T2 construct: host or cells: insect cells (recombinant)

Question: What does the source list for `NNCCc1ccccc1` [Phenelzine]?
Answer: pIC50 [1]: 7.82; pIC50 [2]: 7.72

pIC50: −log10 of the molar value.
